Key:
[1] = system: C. albicans biofilms; assay: in vitro sustained inhibition biofilm assay, fungal; assay type: cell-based, Candida albicans; conditions: 0.4% amino acid, p<0.001
Method: (§1) In vitro biofilm formation was tested using two assays, sustained inhibition and disruption. Both assays assess biofilm formed on polystyrene plates. The first, tests the effects of amino acid solution on a developing biofilm, while the latter tests the effects of the solution on a pre-formed mature biofilm, both compared to media without supplemented amino acids.
(§2) Other amino acids in the blood of animals could combat bacterial and fungal biofilm and therefore may be useful in treating these bacterial and fungal infections that would lie on the external surfaces of infected animals such as humans and could also be used to combat these pathogens on instruments and surfaces that need to be treated. Two types of biofilm assays were performed: a sustained inhibition assay and a disruption assay. The sustained inhibition assay assessed the compound's ability to prevent biofilm development throughout all stages of biofilm formation, while the disruption assay assessed the compound's ability to break up an existing mature biofilm.
(§3) For fungal biofilm assays, all solutions were prepared in RPMI 1640 medium. […]
(§4) Fungal strains were streaked on Yeast Peptone Dextrose (YPD) agar plates and incubated at 30° C. for 48 hours. […] Media was carefully aspirated and the biofilm was measured by optical density at 600 nm. […] Media was carefully aspirated and the biofilm was measured by optical density at 600 nm. […]

[2] = system: C. albicans biofilms; assay: in vitro biofilm disruption assay, fungal; assay type: cell-based, Candida albicans; conditions: 0.4% amino acid, p<0.001
Method: as §1, §2, §3, §4

N[C@@H](CCS)C(=O)O [Homocysteine, L-homocysteine]
Reduce F Biofilm [1]: ● (a single dot [i.e. ●] signifies minor effect (from about 10 to about 30% change))
Reduce F Biofilm [2]: ● (a single dot [i.e. ●] signifies minor effect (from about 10 to about 30% change))
